{
  "source": "paper PMC3267170",
  "about": "“Pharmacological Modulation of Diacylglycerol-Sensitive TRPC3/6/7 Channels” (Current Pharmaceutical Biotechnology, 2011)",
  "origin": "cited, not measured here",
  "details": "exposed to light and oxygen; cited from earlier work",
  "data": [
    {"substance": "hyperforin", "values": [
      {"measurement": "stability", "result": "very unstable"}
    ]}
  ]
}
